# Measured values as given in patent US20170198363A1, “COMPOSITIONS AND METHODS FOR DETECTION OF SMALL MOLECULES” (COLORADO STATE UNIVERSITY RESEARCH FOUNDATION, priority 2015, published 2017).
# Sequences of proteins named here, by UniProt entry; tags and fusion partners are left off. A change or cut given only in a name is not applied to a line headed by its entry.
# UniProt P0CY08: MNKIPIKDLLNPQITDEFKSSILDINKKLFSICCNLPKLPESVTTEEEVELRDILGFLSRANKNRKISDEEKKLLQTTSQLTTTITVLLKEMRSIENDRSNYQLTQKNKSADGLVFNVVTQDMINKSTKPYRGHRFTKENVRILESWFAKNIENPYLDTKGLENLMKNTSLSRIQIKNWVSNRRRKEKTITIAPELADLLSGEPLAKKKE
# Target: degron-G-PRO1-V (Saccharomyces cerevisiae, UniProt P0CY08)
# Assay: HIS3 reporter growth assay, strain PJ69-4a
# Format: cell-based, yeast
# Conditions: HIS3 reporter strain PJ69-4a
substance,measurement,value
pregnenolone,stimulation of growth of degron-G-PRO1-V,not
